The source of these data is PubChem BioAssay AID588819 (The Scripps Research Institute Molecular Screening Center, 2011).

By UniProt entry, the sequences of proteins in these tests, tags left out.
UniProt P11229, whole entry: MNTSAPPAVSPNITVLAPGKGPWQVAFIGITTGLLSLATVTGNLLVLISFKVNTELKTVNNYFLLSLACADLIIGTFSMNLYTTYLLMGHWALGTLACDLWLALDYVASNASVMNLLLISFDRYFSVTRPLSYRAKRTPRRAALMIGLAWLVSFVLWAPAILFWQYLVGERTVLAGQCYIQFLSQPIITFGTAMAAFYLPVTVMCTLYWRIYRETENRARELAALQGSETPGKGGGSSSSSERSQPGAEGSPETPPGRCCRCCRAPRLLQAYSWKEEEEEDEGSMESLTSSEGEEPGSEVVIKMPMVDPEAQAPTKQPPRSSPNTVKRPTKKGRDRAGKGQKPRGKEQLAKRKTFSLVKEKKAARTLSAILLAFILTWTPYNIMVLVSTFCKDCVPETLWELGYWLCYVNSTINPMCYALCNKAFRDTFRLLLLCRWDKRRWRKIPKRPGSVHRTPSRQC

Each structure is given as a SMILES string. The entries are a selection whose mix differs from that of the whole data set. Calls of active or inactive are those of the source. Cut-off read from the data, not from the text of the source: active = activation above about 19% (passing the limit was not always enough); inactive = the rest.

The assay addresses Muscarinic acetylcholine receptor M1 (Homo sapiens) (UniProt P11229). The assay is described as follows: CHRM1 PAMs potentiating acetylcholine calcium signal – CHO-K1 cells, Fluo-8 calcium fluorescence, 1536-well, primary screen (AID 588819). The settings on record: CHO-K1 hM1, Fluo-8 calcium fluorescence, ACh EC20; at 3 µM; active compounds read high; 0% = ACh EC20, 100% = maximal ACh.
As for `CC1=NCCc2c1[nH]c1ccccc21.O=[N+]([O-])c1cc([N+](=O)[O-])c(O)c([N+](=O)[O-])c1`, the activation is inactive: 0%.

For `CCOC(=O)C(CC)C1=NC(C)(C)Cc2ccccc21.O=[N+]([O-])c1cc([N+](=O)[O-])c(O)c([N+](=O)[O-])c1` (stereo not given), the activation is inactive: 2.13%. Take `CN(C)C1(CNC(=O)c2ccc(S(C)(=O)=O)cc2)CCCCC1`: the activation is inactive: 6.73%. For `CC1=C2N=C(C=C3N=C(C(C)=C4[N-][C@@](C)([C@@H]5N=C1[C@](C)(CCC(=O)NC[C@@H](C)OP(=O)([O-])O[C@H]1[C@@H](O)[C@@H](n6cnc7cc(C)c(C)cc76)O[C@@H]1CO)[C@H]5CC(N)=O)[C@@](C)(CC(N)=O)[C@@H]4CCC(N)=O)[C@@](C)(CC(N)=O)[C@@H]3CCC(N)=O)C(C)(C)[C@@H]2CCC(N)=O.[C-]#N.[Co+3]`, the activation was inactive: 3.98%.

Regarding `O=[N+]([O-])c1cc([N+](=O)[O-])c(Nc2nnnn2CCO)c([N+](=O)[O-])c1`, the activation was inactive: 5.03%. `COc1ccccc1OP(C)(=O)Nc1c(C)cccc1C` (stereo not given): the activation was inactive: 7.91%. Under `CN1CCCCC1COC(=O)C1(O)c2ccccc2CCc2ccccc21` (stereo not given) stands inactive: -27.5%; under `CCCOc1ccc(NP(C)(=O)Oc2ccc(Cl)cc2)cc1` (stereo not given), inactive: 10.9%; under `CP(=O)(Nc1ccc(SC(F)(F)F)cc1)Oc1ccccc1` (stereo not given), inactive: -6.25%. Consider `O=[N+]([O-])c1cc([N+](=O)[O-])c(-n2nnc3ccccc32)c([N+](=O)[O-])c1`, for which the activation was inactive: 7.31%. Under `CN(Cc1cccnc1)C(=O)COc1ccc(Cl)c(Cl)c1.O=[N+]([O-])c1cc([N+](=O)[O-])c(O)c([N+](=O)[O-])c1` stands inactive: 16.4%. On to `O=[N+]([O-])c1cc([N+](=O)[O-])c(-c2cnn(-c3ccccc3)c2)c([N+](=O)[O-])c1`, for which the activation was inactive: -6.01%.

As to `Cc1nc2ccc3ccccc3c2s1.O=[N+]([O-])c1cc([N+](=O)[O-])c(O)c([N+](=O)[O-])c1`, the activation is inactive: -4.95%. As to `CP(=O)(Oc1ccccc1)OC(c1ccccc1)C(F)(F)F` (stereo not given), the activation was inactive: -2.18%. In the case of `Cc1ccc(Nc2c([N+](=O)[O-])cc([N+](=O)[O-])cc2[N+](=O)[O-])cc1` it was inactive: 6.14%. In the case of `Cc1cccc(C)c1OP(C)(=O)Nc1ccc(SC(F)(F)F)cc1` (stereo not given) it was inactive: 2.97%. On to `CP(=O)(Nc1ccc(SC(F)(F)F)cc1)Oc1ccc(Cl)cc1` (stereo not given), for which the activation is inactive: 6.1%. `Cc1cc(C)cc(OP(C)(=O)Nc2ccc(SC(F)(F)F)cc2)c1` (stereo not given): the activation is inactive: 0.61%. Under `CP(=O)(NC(=O)Nc1ccccc1)Oc1ccccc1` (stereo not given) stands inactive: 2.96%; under `CCc1ccc(OP(C)(=O)N2CCN(c3ccc([N+](=O)[O-])cc3)CC2)cc1` (stereo not given), inactive: -12.8%; under `CCOC(=O)c1ccc(NP(C)(=O)Oc2ccc(OC)cc2)cc1` (stereo not given), inactive: -0.61%. Take `O=[N+]([O-])c1cc([N+](=O)[O-])c(O)c([N+](=O)[O-])c1.c1ccc(Oc2ccncc2)cc1`: the activation is inactive: 2.77%.

For `CCOP(C)(=S)SCC(=O)NC(C)C(=O)O` (stereo not given), the activation is inactive: -0.23%. Under `CP(=O)(Nc1ccccn1)Oc1ccc(Cl)cc1` (stereo not given) stands inactive: 8.77%. Turning to `CCCCOc1ccc(C(=O)NCC2(N3CCCCC3)CCCCC2)cc1OC`, the activation is inactive: 13.2%. In the case of `CP(=S)(Nn1cnnc1)Oc1ccccc1` (stereo not given) it was inactive: 6.51%; in that of `CP(=O)(Nc1ccccc1Br)Oc1ccccc1` (stereo not given), inactive: 6.56%; in that of `COc1ccccc1OP(C)(=O)Nc1ccccc1` (stereo not given), inactive: 11.1%.

Take `COc1cc(C(=O)NCC2(N3CCOCC3)CCCCC2)ccc1OCC(C)C`: the activation is inactive: 11.7%.

Turning to `O=[N+]([O-])c1cc([N+](=O)[O-])c(Nc2cccnc2)c([N+](=O)[O-])c1`, the activation was inactive: -8.73%.

For the molecule `O=[N+]([O-])c1ccc2c(c1)C=Nc1ccccc1O2`, the activation was inactive: 5.49%. In the case of `Cc1cccc(C)c1OP(C)(N)=O` (stereo not given), the activation is inactive: -0.05%. For the molecule `CC(C)(C)c1ccc(OP(C)(=O)Nc2ccc(SC(F)(F)F)cc2)cc1` (stereo not given), the activation was inactive: -10.9%.

For `Cc1ccc(NP(C)(=O)Oc2ccccc2)c(C)c1` (stereo not given), the activation was inactive: 10.1%.

Take `COc1ccccc1OP(C)(=O)Nc1ccc(C)cc1` (stereo not given): the activation was inactive: 14%. For the molecule `CCOC(=O)c1ccc(NP(C)(=O)Oc2ccccc2)cc1` (stereo not given), the activation is inactive: 11.7%. Under `Cc1cc(C)cc(OP(C)(N)=O)c1` (stereo not given) stands inactive: 1.59%. Consider `COc1ccc(OP(C)(=O)Nc2cccc(F)c2)cc1` (stereo not given), for which the activation was inactive: 3.96%. Take `COc1ccccc1OP(C)(=O)Nc1cc(Cl)ccc1C` (stereo not given): the activation is inactive: -0.72%. Turning to `CCN(CC)CCCOC(=O)C(O)(c1ccccc1)c1ccccc1`, the activation is inactive: -22.2%.
